Read-outs that look alike come from different tables or passages of the source.
Experiments:
[1] = biological target: human NUDT5 (Homo sapiens, UniProt Q9UKK9); test: enzyme-coupled malachite green assay (MG assay), ADPR hydrolysis; format: biochemical; settings: NUDT5, ADPR substrate
Excerpt: We next sought to develop small molecule NUDT5 inhibitors to further probe the role of NUDT5 in ADPR metabolism. A high-throughput, screening-compatible NUDT5 inhibition assay was established using slight modifications to the aforementioned MG procedure (Fig. 2a)[15],[27]. Briefly, ADPR, NUDT5 and calf intestinal alkaline phosphatase (CIP) were combined in a coupled enzymatic assay, as described in the online methods. In turn, ADPR was hydrolyzed to AMP and R5P by NUDT5, and the released R5P was further degraded to ribose and inorganic phosphate (Pi) by CIP. Free Pi was subsequently detected using the malachite green reagent. […]
Activity of NUDT5 and MTH1 with a panel of potential substrates [2-OH-ATP, 2-OH-dATP, 8-oxo-dGDP, GDP and 8-oxo-GTP (Jena Biosciences), 8-oxo-dGTP (TriLink Biotechnologies), dATP (ThermoFisher Scientific), dGTP, GTP and ADPR (Sigma-Aldrich)] was assessed in reaction buffer (100 mM Tris Acetate pH 7.5, 40 mM NaCl, 10 mM Mg Acetate) at 22 °C. […] After 30 min incubation with shaking, formed inorganic phosphate was detected by addition of malachite green reagent. Absorbance at 630 nm was read after 15 min incubation with shaking using a Hidex Sense plate reader. The potency of NUDT5 inhibitors was assessed similarly as above (and in the screening campaign) by monitoring ADPR hydrolysis; details are in the Supplementary Information. […]

[2] = solubility; format: physicochemical
[3] = biological target: NUDT5 in HL-60 cell lysates (Homo sapiens, UniProt Q9UKK9); test: cell lysate CETSA (HT-CETSA); settings: 20 µM, 83 °C
[4] = biological target: NUDT5 in intact HL-60 cells (Homo sapiens, UniProt Q9UKK9); test: intact cell CETSA; settings: 20 µM, 83 °C
[5] = system: HL-60 or U-2 OS cells; test: cell viability by resazurin; settings: 72 h, Supplementary Fig. 7
Procedure: Cell viability was assessed by resazurin[9]. 5000 HL-60 cells (or 1000 U-2 OS/2000 T47D cells) were seeded per well on a 96-well plate. The following morning, compounds (or the equivalent amount of DMSO) were added to obtain the final concentrations indicated and the cells were incubated at 37 °C for 72 h with resazurin added at 0.02 mg/mL for the last 2–6 h. Resorufin fluorescence was detected at […] with a Hidex Sense fluorescent plate reader. Viability curves were fit using the sigmoidal dose-response (variable slope) function in GraphPad Prism 7.

Row | SMILES | IC50 ([1]; read-out: MG assay IC50) [µM] | solubility [2] | IC50 ([1]; read-out: MG assay IC50 (Biochemical IC50)) [µM] | NUDT5 stabilization in cell lysates [3] | NUDT5 stabilization in intact cells [4] | toxicity [5]
1 | CCN(CC)c1nc2c(c(=O)n(C)c(=O)n2C)n1Cc1nnc(-c2ccc(Cl)c(Cl)c2)o1 | 0.11 | very poor solubility |  |  |  | 
2 | Cn1c(=O)c2c(nc(Br)n2Cc2nnc(-c3ccc(Cl)c(Cl)c3)o2)n(C)c1=O |  |  | 0.02 | unable to stabilize NUDT5 above the 50 % cutoff | showed a smaller degree of stabilization | distinctly toxic under tested conditions
3 | CC(C)c1nc2c(c(=O)n(C)c(=O)n2C)n1Cc1nnc(-c2ccc(Cl)c(Cl)c2)o1 |  | major solubility issues |  |  |  | 

Source: article PMC5772648, “Targeted NUDT5 inhibitors block hormone signaling in breast cancer cells” (Nature Communications, 2018)
